A short description of the series: PK test for small-intestinal administration of Pramlintide (ELISA). As to conditions: male, SD, rat, plasma, 200 μg/kg.

This is an account of results in patent US12036197B2, “Composition for improving bioavailability of drugs” (priority 2019, dated 2024).

The structures appear in SMILES notation.

For the compound `CC[C@H](C)[C@H](NC(=O)[C@@H]1CCCN1C(=O)CNC(=O)[C@H](Cc1ccccc1)NC(=O)[C@H](CC(N)=O)NC(=O)[C@H](CC(N)=O)NC(=O)[C@H](CO)NC(=O)[C@H](CO)NC(=O)[C@H](Cc1c[nH]cn1)NC(=O)[C@@H](NC(=O)[C@H](CC(C)C)NC(=O)[C@H](Cc1ccccc1)NC(=O)[C@H](CC(N)=O)NC(=O)[C@H](C)NC(=O)[C@H](CC(C)C)NC(=O)[C@H](CCCNC(=N)N)NC(=O)[C@H](CCC(N)=O)NC(=O)[C@@H](NC(=O)[C@H](C)NC(=O)[C@@H]1CSSC[C@H](NC(=O)[C@@H](N)CCCCN)C(=O)N[C@@H](CC(N)=O)C(=O)N[C@@H]([C@@H](C)O)C(=O)N[C@@H](C)C(=O)N[C@@H]([C@@H](C)O)C(=O)N1)[C@@H](C)O)C(C)C)C(=O)N[C@@H](CC(C)C)C(=O)N1CCC[C@H]1C(=O)N1CCC[C@H]1C(=O)N[C@H](C(=O)N[C@@H](CC(N)=O)C(=O)N[C@H](C(=O)NCC(=O)N[C@@H](CO)C(=O)N[C@@H](CC(N)=O)C(=O)N[C@H](C(=O)N[C@@H](Cc1ccc(O)cc1)C(N)=O)[C@@H](C)O)C(C)C)[C@@H](C)O` [Pramlintide], the bioavailability – broadly, the share of a dose that reaches the circulation, judged against a reference dose that is usually intravenous – worked out at 1.77%.
